# AlphaSeq binding of Ab-14 heavy chain variants to a spike HR2 peptide

Target peptide (SARS-CoV-2 spike, HR2 region): PDVDLGDISGINAS

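The starting antibody came from a phage panning campaign against this peptide. In library AAYL49, one, two or three CDR residues were substituted; doubles and triples were drawn at random. Affinity was read by AlphaSeq, a pooled yeast mating assay with surface-displayed partners. After mating in shaken culture at 30 °C for 16 h, diploids were selected and their barcode pairs sequenced. Read counts were normalised to the haploid input and turned into Kd by a linear fit to BCL2-family pairs of known affinity, for each replicate. There are three technical replicates.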

Parent: Ab-14, a human scFv built as VH, the linker GGGGSGGGGSGGGGS, VL. Only the CDRs of the heavy chain vary.
VH: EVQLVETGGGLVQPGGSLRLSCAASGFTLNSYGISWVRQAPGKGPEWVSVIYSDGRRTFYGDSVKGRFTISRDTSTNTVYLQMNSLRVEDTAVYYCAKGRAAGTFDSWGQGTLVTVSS
VL: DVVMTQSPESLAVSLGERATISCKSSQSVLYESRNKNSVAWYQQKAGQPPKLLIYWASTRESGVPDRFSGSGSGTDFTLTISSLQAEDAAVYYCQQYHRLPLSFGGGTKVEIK

The parent's heavy chain CDRs are GFTLNSYGIS, VIYSDGRRTFYGDSVK, GRAAGTFDS; each variant's own CDRs replace them letter for letter. This list gathers variants with a substitution at R56 (VH, numbered from residue 1). Each Kd is an estimate from the mating assay, the geometric mean of the replicates in which the pair was seen; lower is stronger. Where no diploid with the target was found in any replicate, the entry reads "nd": below detection, most likely a poor binder, though not proof of it.

- GFTLNSYEIS | SIYSDGSRTFYGDSVK | GRAAGTFDS: 5.5 µM (1 of 3 replicates)
- GFTLNSYIIS | VIYSDGMRTFYGDSVK | GRAAGTFDC: 92 µM (3 of 3 replicates)
- GFTLNSYGIS | VIYSDGQHTFYGDSVI | GRAAGTFDS: 610 nM (2 of 3 replicates)
- GFTLWSYGIS | VIYSDGNRTFYGDSVR | GRAAGTFDS: 76 nM (3 of 3 replicates)
- GFTLNSYGRS | VIYSDGMRTFYGDSVK | GRAAGEFDS: nd (0 of 3 replicates)
- GFTLNSYGIS | VIYSDGSRTFYGDSVK | GAAEGTFDS: nd (0 of 3 replicates)
- GFTLRPYGIS | VIYSDGYRTFYGDSVK | GRAAGTFDS: 8.7 µM (1 of 3 replicates)
- GFTLNSYGIS | VIYSDGMRTFYGDSVK | GRAAGKFPS: 16 nM (3 of 3 replicates)
- GFTLNSYGIS | VIYSDGVRTFYGDSVK | GRAATTFDS: 10 nM (3 of 3 replicates)
- GVTLNSYGIS | VIYCDGCRTFYGDSVK | GRAAGTFDS: 43 µM (3 of 3 replicates)
- GFTLNSYGIS | VVYIDGVRTFYGDSVK | GRAAGTFDS: 62 µM (2 of 3 replicates)
- GFTLNSYNIS | VIYSDGWRTFYGESVK | GRAAGTFDS: 830 µM (1 of 3 replicates)
- KFTLNSYGIS | VIYSDGVRTFYCDSVK | GRAAGTFDS: 63 nM (3 of 3 replicates)
- GFTLNSYGIS | VIYSDGPRTFPGDSVK | GRAAGTFDS: 17 µM (1 of 3 replicates)
- GFGLNSYGIS | VIYSDGYRTFPGDSVK | GRAAGTFDS: nd (0 of 3 replicates)
- GFTLNSYGGS | IIYSDGYRTFYGDSVK | GRAAGTFDS: nd (0 of 3 replicates)
- GFTLNSYGIS | QIYSDGYRTFYGDSVK | GRQAGTFDS: nd (0 of 3 replicates)
- WFTLNSYGIS | VIYSDGCRTFYGDSVK | GRAAGTFDS: 1.3 µM (3 of 3 replicates)
- GFTLNSYGIS | VIYSDGDRTFYGDSVK | GRAAGTFPS: 3.3 µM (3 of 3 replicates)
- GFTCNSYGIS | VIYSDGDRTFKGDSVK | GRAAGTFDS: nd (0 of 3 replicates)
- GFTMNSYEIS | VIYSDGMRTFYGDSVK | GRAAGTFDS: nd (0 of 3 replicates)
- GFTLNSYGIS | VIYSDGCRTFYGDSVK | GRAAGTFWS: 100 nM (3 of 3 replicates)
- GFTLNSYGIS | AIYSDGKRTFYGDSVL | GRAAGTFDS: 1.5 µM (1 of 3 replicates)
- GFTLASYGIS | VIYSDGYRTFYGDSVK | GRAAGFFDS: nd (0 of 3 replicates)
- GFTLNSYGIS | CIYFDGTRTFYGDSVK | GRAAGTFDS: 7.9 µM (1 of 3 replicates)
- GVTLNSYGIS | VIYSDGARTFYGDSVK | GRAAGHFDS: 7.5 µM (1 of 3 replicates)
- GFTLNSYGIN | VIYSDGARTFYGDSVK | GRAANTFDS: 78 nM (1 of 3 replicates)
- GFTLNSYGIS | VIYSDGEFTFYGDSVK | GRAAGTFDS: nd (0 of 3 replicates)
- GTTLRSYGIS | VIYSDGTRTFYGDSVK | GRAAGTFDS: 740 nM (3 of 3 replicates)
- GFTLNSYGIS | VIYSDGKRTFYGDSVK | RRSAGTFDS: nd (0 of 3 replicates)
- GFTLNSYGIS | VIYSDGMRTFYGDYVK | GRAAGMFDS: nd (0 of 3 replicates)
- CFTLNSYGIS | VIYSDDNRTFYGDSVK | GRAAGTFDS: nd (0 of 3 replicates)
- GFTLNSPGIS | VIYSDGQRTFYGDSVK | GRAAGTFDS: nd (0 of 3 replicates)
- GFTLNSYGIS | VIYSDGHRTFYGDSVV | GRAAGTTDS: nd (0 of 3 replicates)
- GFTLVSYGIS | VIYSDGGRTFYGDSVK | GRAAGTFDS: 1.1 µM (2 of 3 replicates)
- GFTLNSYGIS | VIYSDGQRTFYGTSVK | ERAAGTFDS: 6.5 µM (3 of 3 replicates)
- GQTLNSYGIS | VIYSDGSRTFYGDSVK | GRGAGTFDS: nd (0 of 3 replicates)
- GFTLNSYQIM | VIYSDGWRTFYGDSVK | GRAAGTFDS: nd (0 of 3 replicates)
- GFTLNSYGIS | VIYSDGEHTFYGDGVK | GRAAGTFDS: 980 nM (3 of 3 replicates)
- GFTLNSYGIS | VIYSDGNRTFYGDSVK | DRAAGTFDS: 12 µM (2 of 3 replicates)
- GFTLNSYGIS | VIYSDGNRTFHGDSVK | GRAAGTFDW: 14 µM (2 of 3 replicates)

The closing 4 entries, repeated:

- GFTLNSYQIM | VIYSDGWRTFYGDSVK | GRAAGTFDS = nd (0 of 3 replicates)
- GFTLNSYGIS | VIYSDGEHTFYGDGVK | GRAAGTFDS = 980 nM (3 of 3 replicates)
- GFTLNSYGIS | VIYSDGNRTFYGDSVK | DRAAGTFDS = 12 µM (2 of 3 replicates)
- GFTLNSYGIS | VIYSDGNRTFHGDSVK | GRAAGTFDW = 14 µM (2 of 3 replicates)

As a blank, each scFv also met three strains without target: over library AAYL49, 15% of these pairings were detected, typically at 11 µM and seldom below 680 nM. For reference, the parent read 4.4 nM as the reference entry and 13 µM (one replicate of three) as a member of this library.

Values reported by Engelhart et al. 2022, doi:10.1038/s41597-022-01779-4 (FLAb copy).